Publication PMC10871247 (bioRxiv, 2024)

Biological target: the molecule itself
Test: SEC

B1: 3×Lys-MxEnc (natural protein, Myxococcus xanthus)
chain: MPDFLGHAENPLREEEWARLNETVIQVARRSLVGRRILDIYGPLGAGVQTVPYDEFQGVSPGAVDIVGEQETAMVFTDARKFKTIPIIYKDFLLHWRDIEAARTHNMPLDVSAAAGAAALCAQQEDELIFYGDARLGYEGLMTANGRLTVPLGDWTSPGGGFQAIVEATRKLNEQGHFGPYAVVLSPRLYSQLHRIYEKKKVLEIETIRQLASDGVYQSNRLRGESGVVVSTGRENMDLAVSMDMVAAYLGASRMNHPFRVLEALLLRIKHPDAICTLEGAGATERR
  binding result: binds
